US20230129485A1, “SYSTEM AND METHOD FOR DETERMINING MATERIAL PROPERTIES OF MOLECULAR SYSTEMS FROM AN AB-INITIO PARAMETERIZED FORCE-FIELD” (InterX, Inc., priority 2021, published 2023)

Columns and labels:
[1] = Free energy of hydration by Free Energy Machine Learning Model (FML); conditions: absolute error vs Exp (hydration)
[2] = Free energy of hydration by COSMO-RS
[3] = Table 3; free energy of solvation in cyclohexane, experimental; cited from earlier work
[4] = Free energy of hydration by Polarizable Continuum Model (PCM); conditions: absolute error vs Exp (hydration)
[5] = Free energy of hydration by COSMO implicit solvent model (MolPro ver. 2012); conditions: absolute error vs Exp (hydration)
[6] = Free energy of hydration predicted with the QM-parameterized force field model (ARROW FF), classical MD and PIMD simulation in a water box
[7] = Free energy of hydration by Solvation Model Dielectric (SMD) implicit solvent model; conditions: absolute error vs Exp (hydration)

Compound | FML error [1] [kcal/mol] | COSMO-RS error [2] [kcal/mol] | CHEX Exp (solvation) [3] [kcal/mol] | PCM Error [4] [kcal/mol] | COSMO/Molpro Error [5] [kcal/mol] | water Arrow MD Error ([6]; Table 3, absolute error of MD hydration free energy vs experiment) [kcal/mol] | water Arrow PIMD8 Error ([6]; Table 3, absolute error of PIMD8 hydration free energy vs experiment) [kcal/mol] | Arrow PIMD8 Error ([6]; absolute error vs Exp (hydration)) [kcal/mol] | SMD Error [7] [kcal/mol]
1-Butanol | 0.00 | 0.10 | -3.52 | 1.62 | 1.83 | 0.85 | 0.06 | 0.06 | 0.82
C1CCCC1 [Cyctopentane] |  |  |  |  | 1.83 |  |  |  | 
